Data taken from patent publication US8609833B2, “Purine derivatives as adenosine A1 receptor agonists and methods of use thereof” (Inotek Pharmaceuticals Corporation, priority 2004, dated 2013).

By UniProt entry, the sequences of proteins in these tests, tags left out.
UniProt P0DMS8, whole entry: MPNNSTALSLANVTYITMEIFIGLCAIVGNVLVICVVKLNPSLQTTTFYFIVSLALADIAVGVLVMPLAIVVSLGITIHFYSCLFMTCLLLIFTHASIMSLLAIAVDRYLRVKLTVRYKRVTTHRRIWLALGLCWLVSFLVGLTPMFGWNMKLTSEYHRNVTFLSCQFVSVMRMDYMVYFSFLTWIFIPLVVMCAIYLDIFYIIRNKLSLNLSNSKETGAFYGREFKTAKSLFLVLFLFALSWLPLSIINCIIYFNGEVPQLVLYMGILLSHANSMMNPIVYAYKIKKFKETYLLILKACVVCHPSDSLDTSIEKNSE
UniProt P30542, whole entry: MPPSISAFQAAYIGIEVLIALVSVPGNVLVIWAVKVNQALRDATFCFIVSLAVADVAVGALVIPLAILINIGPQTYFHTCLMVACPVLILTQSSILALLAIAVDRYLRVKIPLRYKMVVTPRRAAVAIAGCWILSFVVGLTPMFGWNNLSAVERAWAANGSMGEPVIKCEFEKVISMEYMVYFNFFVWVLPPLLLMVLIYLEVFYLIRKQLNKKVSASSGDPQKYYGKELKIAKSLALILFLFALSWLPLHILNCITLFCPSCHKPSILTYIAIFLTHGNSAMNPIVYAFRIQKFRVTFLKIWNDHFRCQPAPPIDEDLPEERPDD

Legend:
[1] = molecular target: human recombinant A2A adenosine receptor (Homo sapiens (Human), UniProt P29274); experiment: Adenosine A2A receptor binding, displacement of [3H]NECA; settings: read-out: Ki(A2A); displacement of specific [3H]NECA binding, CHO cells; geometric mean; tested form: Na salt
[2] = molecular target: human recombinant A3 adenosine receptor (Homo sapiens (Human), UniProt P0DMS8); experiment: Adenosine A3 receptor binding, displacement of [3H]NECA; settings: read-out: Ki(A3); displacement of specific [3H]NECA binding, HEK cells; geometric mean; tested form: Na salt
[3] = molecular target: human recombinant A1 adenosine receptor (Homo sapiens (Human), UniProt P30542); experiment: Adenosine A1 receptor binding, displacement of [3H]CCPA; settings: versus human A2A and A3 receptors, Table 1; tested form: Na salt

## O=S(=O)(O)OC[C@H]1O[C@@H](n2cnc3c(NC4CCCC4)ncnc32)[C@H](O)[C@@H]1O
[1]
  Ki: 9.11 µM
[2]
  Ki: 1.02 µM
[3]
  selectivity for the adenosine A1 receptor: selective for the adenosine A1 receptor
